Experimental data taken from ChEMBL document CHEMBL1127118 (Bioorg Med Chem Lett, 1993).

Sequences of proteins named here, by UniProt entry; tags and fusion partners are left off.
UniProt P28564, whole entry: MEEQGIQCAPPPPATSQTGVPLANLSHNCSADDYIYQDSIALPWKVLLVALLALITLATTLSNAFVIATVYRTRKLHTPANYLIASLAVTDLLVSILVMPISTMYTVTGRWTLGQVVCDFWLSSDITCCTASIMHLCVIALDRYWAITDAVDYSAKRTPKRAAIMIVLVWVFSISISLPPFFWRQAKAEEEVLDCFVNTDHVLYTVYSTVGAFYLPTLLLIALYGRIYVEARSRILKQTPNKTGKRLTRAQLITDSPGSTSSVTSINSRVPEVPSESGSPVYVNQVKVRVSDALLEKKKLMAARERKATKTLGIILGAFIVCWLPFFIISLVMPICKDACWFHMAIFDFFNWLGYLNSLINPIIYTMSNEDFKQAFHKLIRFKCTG

Molecular target: 5-hydroxytryptamine receptor 1B (Rattus norvegicus, UniProt P28564)
Assay: Binding affinity against 5-hydroxytryptamine 1B receptor in rat striatal membranes using [3H]5-HT as radioligand
Format: cell membranes, Striatum, Membrane

`CCCN(CCC)C1CCc2cccc(O)c2C1` (stereo unspecified) [8-OH-DPAT] gave a Ki of over 10 µM.
